Data on 1 compound can be found in patent publication US10858326B2, “Oxazoline pseudodimers, pharmaceutical compositions and the use thereof” (PURDUE PHARMA L.P., priority 2016, dated 2020).

Amino acid sequences for entries named in this document (tags omitted). A change or cut given only in a name is not applied to a line headed by its entry.
UniProt Q96RJ0: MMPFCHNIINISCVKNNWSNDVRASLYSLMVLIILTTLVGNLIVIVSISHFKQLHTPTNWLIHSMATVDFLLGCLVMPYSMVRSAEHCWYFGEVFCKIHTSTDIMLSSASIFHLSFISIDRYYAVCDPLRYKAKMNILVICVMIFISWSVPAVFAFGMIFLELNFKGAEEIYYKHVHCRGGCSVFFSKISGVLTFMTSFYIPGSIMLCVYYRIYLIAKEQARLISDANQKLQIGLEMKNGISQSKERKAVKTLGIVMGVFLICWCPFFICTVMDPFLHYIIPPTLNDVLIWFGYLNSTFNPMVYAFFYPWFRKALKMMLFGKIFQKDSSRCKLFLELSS

The target in one assay is hTAAR1 (Homo sapiens (Human), UniProt Q96RJ0). Put plainly: in vitro cAMP assay (agonist activity assay), HitHunter cAMP XS+, cAMP Hunter cell lines. The format is cell-based. To be noted: maximal cAMP level, cAMP Hunter cells, n in brackets. (In general: cAMP levels reflect the balance of adenylyl cyclase and phosphodiesterase activity.)
Assay [1] concerns SNL-induced mechanical hyperalgesia in rats. Put plainly: spinal nerve ligation (SNL) induced mechanical hyperalgesia model, paw pressure test (PWT).

Take `Clc1ccc([C@H]2COC(NC3=N[C@@H](c4ccc(Cl)c(Cl)c4)CO3)=N2)cc1Cl` [Compound (8), (4S)-4-(3,4-dichlorophenyl)-N-[(4S)-4-(3,4-dichlorophenyl)-4,5-dihydro-1,3-oxazol-2-yl]-4,5-dihydro-1,3-oxazol-2-amine]: at hTAAR1, the “hTAAR1 Emax (mean ± SEM(n))” value is 16.7 ± 7.2% (3). The “max reversal of SNL-induced mechanical hyperalgesia” value in assay [1] (male Sprague-Dawley rats, 4 weeks post-SNL surgery, dosed orally at 5 mg/kg 1 hour before testing, in 25% HPBCD) is listed as 85%. Also, the “effect on SNL-induced mechanical hyperalgesia” value in assay [1] (rats, dosed orally at 5 mg/kg one hour before testing) is reported as “reduced SNL-induced mechanical hyperalgesia”.
